Experimental data from patent US20070105931A1, “Methods and compositions for inhibiting the proliferation of prostate cancer cells” (Mayo Foundation for Medical Education and Research, priority 2003, published 2007).

Test system: LNCaP cells
Test: Growth response (MTS cell proliferation assay), LNCaP
Type: cell-based
Settings: Homo sapiens, 144 h, MTS assay 6 days after treatment
Description: Human prostate cancer cell lines LNCaP (American Type Culture Collection, Manassas, Va.) and LAPC-4 (kindly provided by Dr. Charles L. Sawyers; Zhu et al., 1999, Endocrinology, 140:5451-4) were maintained in RPMI 1640 (Mediatech, Hercules, Calif.) containing 5% FBS (Biofluids, Rockville, Md.) at 37° C. and 5% CO2. To avoid potential interference of existing steroids in FBS, the media were first replaced by serum-free RPMI 1640 for 24 h. Cells were then cultured in RPMI 1640 with 5% charcoalstripped FBS supplemented with or without 1 nM Mib (New England Nuclear, Boston, Mass.), a nomnetabolizable, synthetic androgen.
Cells were plated in 24-well plates at 2×10^4 cells/well. Forty-eight h after plating, cells were treated with celecoxib or nimesulide (LKT Lab, St. Paul, Minn.) and other NSAIDs as shown in Table 1 at different doses in the presence or absence of Mib. MTS assay (Promega, Madison, Wis.) was performed to determine cell proliferation 6 days after the treatment. To measure secreted PSA and hK2 levels, 400 μl of spent medium from cells treated for 6 days were collected. PSA and hK2 proteins levels were determined using specific immunoassays (Mayo Immunochemical Core Facility). These measurements were used to the calculate 50% inhibitory concentration (IC50) of each of the NSAIDs.

- IC50: 32.6 µM
Compound: Cc1ccc(-c2cc(C(F)(F)F)nn2-c2ccc(S(N)(=O)=O)cc2)cc1 [Celecoxib]
